Experimental data as given in patent US12168664B2, “Triazolopyrimidines, their preparation and use” (THE TRUSTEES OF COLUMBIA UNIVERSITY IN THE CITY OF NEW YORK, priority 2018, dated 2024).

Legend:
[1] = target: human RBP4 (Homo sapiens (Human), UniProt P02753); test: SPA binding assay for RBP4 (scintillation proximity, 3H-retinol displacement); conditions: read-out: SPA binding assay for RBP4 - IC50; 10 nM 3H-retinol, 50 nM biotinylated RBP4
[2] = target: RBP4-TTR interaction (Homo sapiens (Human), UniProt P02753); test: HTRF (TR-FRET) assay for antagonists of retinol-induced RBP4-TTR interaction; format: biochemical; conditions: read-out: HTRF assay for antagonists of RBP4-TTR interaction - IC50; in the presence of 1 μM retinol

| IC50 [1] [nM] | IC50 [2] [nM] | SMILES |
| --- | --- | --- |
| 39.5 | 450 | O=C(c1nc2ncc(CCO)cn2n1)N1C[C@H]2C[C@@H](c3ccccc3OC(F)(F)F)C[C@H]2C1 |
| 34.6 | 604 | O=C(c1nc2ncc(Br)cn2n1)N1C[C@H]2C[C@@H](c3ccccc3OC(F)(F)F)C[C@H]2C1 |
